Test results published in US6630472B1, “Compounds, pharmaceutical compositions, and methods for stimulating neuronal growth and elongation” (priority 1998, dated 2003).

Sequences of proteins named here, by UniProt entry; tags and fusion partners are left off.
UniProt P62942, whole entry: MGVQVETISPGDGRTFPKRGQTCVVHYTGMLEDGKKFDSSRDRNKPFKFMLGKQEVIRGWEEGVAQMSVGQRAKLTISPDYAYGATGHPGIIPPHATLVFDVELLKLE

Target: FKBP12 (Homo sapiens, UniProt P62942)
Experiment: rotamase inhibition assay (N-succinyl-Ala-Ala-Pro-Phe-p-nitroanilide, chymotrypsin-coupled)
Conditions: read-out: Rotamase Ki(app); apparent Ki; NI = no inhibition at the concentrations tested

Q: How did the Ki turn out when `CCCCCC1C(=O)N(C2CCCC2)C=C2C3CCCC(C(=O)N21)N3C(=O)C(=O)c1cc(OC)c(OC)c(OC)c1` (single isomer, unassigned) [158] was run?
A: 776 nM

Q: For `CCC(C)(C)C(=O)C(=O)N1C2CCCC1C1c3ccccc3CCCN1C2=O` (stereo not drawn), which Ki is on record?
A: 16000 nM

Q: How did the Ki turn out when `CC(=O)OCC1(C(=O)C(=O)N2C3CCCC2C2=Cc4cc(C(F)(F)F)cc(C(F)(F)F)c4CN2C3=O)CCCC1` (stereo not drawn) was run?
A: > 50000 nM

Q: `CCCN1C=C2C3CCCC(C(=O)N2CC1=O)N3C(=O)C(=O)C(C)(C)CC` (stereo not drawn) was tested. Which Ki did it give?
A: 1400 nM

Q: With `COc1cc(C(=O)C(=O)N2C3CCCC2C(=O)N(CCCCc2ccccc2)CC3)cc(OC)c1OC` (stereo not drawn) as the compound, how does the Ki read?
A: 239 nM

Q: Which Ki does the source give for `COc1cc(C(=O)C(=O)N2C3CCCC2C2=Cc4cc(C(F)(F)F)cc(C(F)(F)F)c4CN2C3=O)cc(OC)c1OC` (stereo not drawn) here?
A: 370 nM

Q: With `COc1cc(C(=O)C(=O)N2C3CCCC2C2CN(CC(OC)OC)C(=O)CN2C3=O)cc(OC)c1OC` (stereo not drawn) as the compound, how does the Ki read?
A: 350 nM

Q: How did the Ki turn out when `CCC(C)(C)C(=O)C(=O)N1C2CCCC1C1CN(CC(OC)OC)C(=O)CN1C2=O` (stereo not drawn) was run?
A: > 50000 nM

Q: `CCC(C)(C)C(=O)C(=O)N1C2CCCC1C1c3ccc(OC)cc3CCN1C2=O` (stereo not drawn) was tested. Which Ki did it give?
A: 620 nM

Q: Which Ki does the source give for `CCC(C)(C)C(=O)C(=O)N1C2CCCC1C1CN(Cc3ccc(OC)cc3)C(=O)CN1C2=O` (stereo not drawn) here?
A: > 50000 nM

Q: Which Ki does the source give for `CCC(C)(C)C(=O)C(=O)N1C2CCCC1C1c3cc(OC)ccc3CCN1C2=O` (stereo not drawn) here?
A: 1600 nM

Q: How did the Ki turn out when `COc1cc(C(=O)C(=O)N2C3CCCC2C(=O)NCC3)cc(OC)c1OC` (stereo not drawn) was run?
A: 3300 nM

Q: For `COc1ccc2c(c1)C1C3CCCC(C(=O)N1CC2)N3C(=O)C(=O)c1cc(OC)c(OC)c(OC)c1` (stereo not drawn), which Ki is on record?
A: 80 nM

Q: Which Ki does the source give for `CCCNC(=O)CN1C(=O)C2CCCC(C1C(OC)OC)N2C(=O)C(=O)C(C)(C)CC` (stereo not drawn) here?
A: 31400 nM

Q: For `CCCCCC1C(=O)N(C2CCCC2)C=C2C3CCCC(C(=O)N21)N3C(=O)C(=O)c1cc(OC)c(OC)c(OC)c1` (single isomer, unassigned) [157], which Ki is on record?
A: 1600 nM

Q: How did the Ki turn out when `CCOC(=O)CN1C(=O)C2CCCC(C1C(OC)OC)N2C(=O)C(=O)c1cc(OC)c(OC)c(OC)c1` (stereo not drawn) was run?
A: 170 nM

Q: Which Ki does the source give for `COc1cc(C(=O)C(=O)N2C3CCCC2C2c4ccccc4CCCN2C3=O)cc(OC)c1OC` (stereo not drawn) here?
A: 880 nM

Q: Which Ki does the source give for `CCCN1C=C2C3CCCC(C(=O)N2CC1=O)N3C(=O)C(=O)c1cc(OC)c(OC)c(OC)c1` (stereo not drawn) here?
A: 130 nM

Q: `COc1ccc(CN2CC3C4CCCC(C(=O)N3CC2=O)N4C(=O)C(=O)c2cc(OC)c(OC)c(OC)c2)cc1` (stereo not drawn) was tested. Which Ki did it give?
A: 220 nM

Q: Which Ki does the source give for `COc1ccc2c(c1)CCN1C(=O)C3CCCC(C21)N3C(=O)C(=O)c1cc(OC)c(OC)c(OC)c1` (stereo not drawn) here?
A: 175 nM

Q: For `CCC(C)(C)C(=O)C(=O)N1C2C=CN(CCCCc3ccccc3)C(=O)C1CCC2` (stereo not drawn), which Ki is on record?
A: 381 nM

Q: For `CCC(C)(C)C(=O)C(=O)N1C2CCCC1C(=O)N(CCCCc1ccccc1)CC2` (stereo not drawn), which Ki is on record?
A: 5000 nM

Q: With `CCC(C)(C)C(=O)C(=O)N1C2CCCC1C1c3ccccc3CCN1C2=O` (stereo not drawn) as the compound, how does the Ki read?
A: 3200 nM

Q: For `CCC(C)(C)C(=O)C(=O)N1C2CCCC1C(=O)N(CCOCc1ccccc1)C2` (stereo not drawn), which Ki is on record?
A: 2300 nM
